## scFv variants of Ab-14 (heavy chain) against a SARS-CoV-2 spike peptide

Target: peptide PDVDLGDISGINAS, taken from heptad repeat 2 (HR2) of SARS-CoV-2 spike.

Ab-14 is the parent antibody, in scFv form: VH, then a (GGGGS)3 linker, then VL. The light chain is unchanged in all variants.
VH: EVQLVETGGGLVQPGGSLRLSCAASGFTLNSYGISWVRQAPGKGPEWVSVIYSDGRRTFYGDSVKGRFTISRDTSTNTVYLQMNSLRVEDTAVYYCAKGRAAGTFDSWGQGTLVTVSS
VL: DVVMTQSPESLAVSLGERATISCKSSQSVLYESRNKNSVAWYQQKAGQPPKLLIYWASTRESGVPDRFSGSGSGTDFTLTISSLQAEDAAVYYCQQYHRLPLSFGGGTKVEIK

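This is the validation round: designs drawn from the data on random variants, tested in the same kind of assay. Several design methods are mixed in this list. AlphaSeq pools MATa yeast showing the antibodies with MATalpha yeast showing the peptide. Pairs that bind mate more often; barcode pairs of the diploids are counted by sequencing. Read counts were normalised to the haploid input and turned into Kd by a linear fit to BCL2-family pairs of known affinity, for each replicate. Each pool was mated in six replicate cultures.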

Each variant is given by its three heavy chain CDRs, as the data file delimits them; those of the parent are GFTLNSYGIS, VIYSDGRRTFYGDSVK, GRAAGTFDS.
Variants here have at most six changes.
Each Kd is an estimate from the mating assay, the geometric mean of the replicates in which the pair was seen; lower is stronger.
A pair that was not seen in any replicate is written "not detected"; this usually means weak binding, but a binder can also be missed.

| CDR-H1 | CDR-H2 | CDR-H3 | Kd | detected |
|---|---|---|---|---|
| GFQLNSYGIS | VIYSDGRRTAYGDQVK | GQAAGTFDS | 9.1 nM | 6/6 |
| GFELNSYGIS | VIYSDGRRTFYQDHVK | GKTAGTFDS | 80 nM | 4/6 |
| GETLNSYGIS | VIYSDGRRTFYHDSVK | GFAAGTFDS | 34 nM | 2/6 |
| GFTLNSYGIS | VIYSDGRRTFYGDSVK | GQTAGTFDA | 10 nM | 5/6 |
| GFSLNEYGIS | VIYSDGRREFYGDSVK | GRAEGTFDS | 2.3 nM | 6/6 |
| GFYLNEYGIS | VIYSDGRRTFYGDQVK | GRTAGTFDS | 9.5 nM | 5/6 |
| GFSLNTYGIS | VIYSDGRRTFYGDSVK | GRIAGTFDS | 3.8 nM | 6/6 |
| GFTLNEYGIS | VIYSDGRRTFYGDSVK | GRAALTFDI | not detected | 0/6 |
| GFELNSYGIS | VIYSDGKRTFYGDSVK | GRQAGTFDS | 1.8 nM | 3/6 |
| GFNLNSYGIS | VIYSDGRRTFYSDSVK | GHAAGTFDS | 1.7 nM | 6/6 |
| GFELNSYGIS | VIYSDGQRTFYADSVK | GKTAGTFDS | 1.4 nM | 6/6 |
| GFTLNEYGAS | VIYSDTRRTFYGRSVK | GRAAVTFDQ | not detected | 0/6 |
| GFNLNSYGIS | VAYSDGRRTFYGDSVK | GREAITFDS | not detected | 0/6 |
| GFDLNSYGIS | VIYSDGRRTFYADQVK | GRNAGTFDS | 1.2 nM | 6/6 |
| GFTLNEYGIS | VIYSDGRRTFYGDSVK | GRYAGTFDD | 59 nM | 1/6 |
| GNTLNDYGIS | VIYSDGRRTAYGDSVK | GRLAGTFDS | 24 nM | 6/6 |
| GFSLNSYGIS | VIYSDGRRTFYGDSVK | GLEAGTFDS | 3.8 nM | 6/6 |
| GFNLNSYGIS | VIYSDGRRTFYIDSVK | GRVAGTFDT | 22 nM | 5/6 |
| GFGLNEYGIS | VIYSDGRRTFYIDSVK | GKAAGTFDS | 1.7 nM | 6/6 |
| GWTLNDYGIS | VIYSDGRRTQYIDSVK | GRAAGTFDS | 3.1 nM | 4/6 |
| GFGLNEYGIS | VIYSDGRRTFYTDSVK | GQAAGTFDS | 880 pM | 6/6 |
| GFTLNMYGIS | VIYSDGRRTFYGDSVK | GRQAGTFDS | 130 nM | 4/6 |
| GFSLNSYGIS | VIYSDGMRTFYGDSVK | GRTAGTFDS | 4.9 nM | 6/6 |
| GFDLNSYGIS | VIYSDGRRTFYQDSVA | GNHAGTFLS | 220 nM | 1/6 |
| GFNLNSYGIS | VIYADGRRTSYGDSVK | GRAAGMDDS | not detected | 0/6 |
| GFALNSYGIS | VIYADGRRTFYGDSVK | GRAAGTVDS | 240 nM | 1/6 |
| GFSLNQYGIS | VIYSDGMRTFYSDSVK | GRAAGTFDS | 910 pM | 6/6 |
| GFTLNSYGIS | VIYSDGRRTFYGDRVK | GRAAGTFDS | 110 nM | 2/6 |
| GFTLNEYGIS | VIYADGRRTFYGDSVK | GQAAGTFDS | 480 pM | 6/6 |
| GFDLNSYGIS | VIYSDGRRTFYGDSVK | GKAAGTFDE | 3.2 nM | 6/6 |
| GFTLKSYGIS | VIYSDGRRTFYDDSVK | GKTAGTFDS | 90 nM | 3/6 |
| GFTLNSYGIS | VIYSDGHRTFYGDHVK | GRAAGTFDS | 12 nM | 4/6 |
| GFTLNSYGIS | VIYSDGVRTFYSDSVK | GKAAGTFDV | 1.1 nM | 3/6 |
| GFTLESYGIS | VIYSDGRRTFYQDSVK | GQGAGTFDS | not detected | 0/6 |
| KFSLNNYGIS | VIYSDGRRTFYGDSVK | GRTAGTFDS | not detected | 0/6 |
| GFQLNSYGIS | VIYSDGRRTFYHDSVK | GRTAGTFDS | 3.9 nM | 4/6 |
| GFSLNEYGIS | VIYSDGRRTFYGDSVK | GRAALTFDS | not detected | 0/6 |
| GFTLNSYGIS | VIYADGRRTFYGDQVK | GRVAGTFDS | 3.2 nM | 6/6 |
| GFTLNSYGIS | VIYADGRRTFYGDRVK | GQAAGTFDL | 5.1 nM | 6/6 |
| GFTLESYGIS | VIYSDGRRTFYVDSVK | GQAAGTFDS | 95 nM | 1/6 |
| GFELNSYGIS | VIYSDGRRTFYGDSVK | GKLAGTFDS | 9.4 nM | 6/6 |
| GFTLNSYGIS | VIYSDGRRTFYDDSVK | GQLAGTFDD | 38 nM | 6/6 |
| GFVLNEYGIS | VIYSDGRRTFYGDSVK | GKAAGTFDK | 62 nM | 1/6 |
| GFELNEYGIS | VIYADGRRTFYGDSVK | GRAAGTFDS | 430 pM | 6/6 |
| GFTLNSYGIS | VIYADGLRTFYIDSVK | GRAAVTFDS | not detected | 0/6 |
| GFTLNSYGIS | VIYSDGRRTFYDDSVK | GRVSGTFDS | 15 nM | 6/6 |
| GFDLNSYGIS | VIYSDGRRTFYGDSVK | GRIAGTFDT | 920 pM | 6/6 |
| GFTLNSYGIC | VIYSDGRRTFYFDSVK | GRAEGTFDS | not detected | 0/6 |
| GFTLNSYGIH | VIYSDGRRTFYGDSVK | GQNAGNFDV | not detected | 0/6 |
| GFTLNDYGIS | VIYSDGRRTFYGDDVR | GRAAGTFDS | 9.3 nM | 6/6 |
| GFQLNSYGIS | VIYSDGRRTFYGDSVK | GRFAKTFDS | not detected | 0/6 |
| GFQLNEYGIS | VIYSDGRRTFYQDSVK | GNAAGTFDS | 2.8 nM | 6/6 |
| GFTLNSYGIS | VIYSDGRRTFYADSVK | GKVAGTFDS | 2.2 nM | 6/6 |
| GFDLNSYGIS | VIYSDGRRTAYQDSVK | GRAAGTFDS | 1.4 nM | 6/6 |
| GFTLNMYGIS | VIYSDGRRQFYSDSVK | GRAAGNFDS | 1.5 µM | 1/6 |
| GFSLNEYGIS | VIYSDGRRTFYGDSVK | GQTAGTFDK | 680 pM | 6/6 |
| GFTLNDYGIS | VIYSDGKRTFYGDSVK | GQNAGTFDS | 11 nM | 6/6 |
| GFTLNSYGIS | VIYADGYRTFYGDSVK | GQAIITFSS | not detected | 0/6 |

A selection of 7 entries from above:

| CDR-H1 | CDR-H2 | CDR-H3 | Kd | detected |
|---|---|---|---|---|
| GFELNSYGIS | VIYSDGRRTFYQDHVK | GKTAGTFDS | 80 nM | 4/6 |
| GFSLNSYGIS | VIYSDGMRTFYGDSVK | GRTAGTFDS | 4.9 nM | 6/6 |
| GFTLNSYGIS | VIYADGRRTFYGDQVK | GRVAGTFDS | 3.2 nM | 6/6 |
| GFNLNSYGIS | VIYADGRRTSYGDSVK | GRAAGMDDS | not detected | 0/6 |
| GFTLNMYGIS | VIYSDGRRQFYSDSVK | GRAAGNFDS | 1.5 µM | 1/6 |
| GFELNSYGIS | VIYSDGRRTFYGDSVK | GKLAGTFDS | 9.4 nM | 6/6 |
| GFTLNSYGIS | VIYSDGRRTFYGDRVK | GRAAGTFDS | 110 nM | 2/6 |

In the paper, a design with two or fewer of six values counts as a poor binder.
The range of this assay differs from that of the first round, and the authors advise against merging the two.
Background: pairings of all heavy chain designs with three empty control strains gave a value in 1% of cases (median 120 nM, 5th percentile 7.0 nM). Values in that range, when seen in few replicates, are hard to tell from nonspecific mating.

From the AlphaSeq antibody data of Li et al. 2023 (doi:10.1038/s41467-023-39022-2), copy in the FLAb collection.